Laboratory results from publication PMC6017358, “In Silico-Based Repositioning of Phosphinothricin as a Novel Technetium-99m Imaging Probe with Potential Anti-Cancer Activity” (Molecules : A Journal of Synthetic Chemistry and Natural …, 2018).

Assay: Biodistribution study in mice
Conditions: I.V., 10 min post injection, n = 3

CP(=O)(O)CCC(N)C(=O)O (stereo not shown) [Phosphinothricin, 2-amino-4-(hydroxymethyl-phosphinylbutyric acid ammonium salt]
Biological distribution, Bone: 36.13 ± 1.5 %ID/organ

Where a name gives a salt, the structure may show the parent alone.
